Many of the other results were omitted from the sample, so hits are more common in it than they were.
HCMV NEC inh: disrupts HCMV UL50-UL53 complex binding; HTRF UL50-UL53 interaction, normalized percent inhibition; inhibition, % (concentration not given with the values); 190,000 tested, 0.15% active; AID 1918969; in the data active = inhibition above about 27%, passing the limit was not always enough
GIV Gai3 FP: GIV-Galpha-i interaction inhibition. AID 1224905. actives 0.42% (n = 210,000). percent of control (FP), % (test concentration not listed). Galpha-i3/FITC-GIV peptide fluorescence polarization, 90 min; stronger effect = lower value; scaled: aluminum fluoride 0%, vehicle 100%;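 active = replicate mean at 85% of control or lower, very high polarization wells dropped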;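 also: wells of about 15 µL received 100 nL stock; the first replicate is given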
GIV Gai FP conf: GIV-Galpha-i3 inhibition, FP confirmation; shares compounds with GIV Gai3 FP; FITC-GIV peptide binding to Galphai3, fluorescence polarization; stronger effect = lower value; fluorescence polarization, mP at 100 µM; 580 tested, 38% active;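 active = inhibition score of 15 or more, meaning 100 minus mean polarization as percent of control over three replicates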
GIV-Gai AS conf: confirmation of inhibitors of GIV binding to human Galpha-i3 | AID 1259351 | AlphaScreen counts at 100 µM | 580 tested, 39% active | AlphaScreen Galphai3-GIV binding, purified proteins, 90 min; stronger effect = lower value | shares compounds with GIV Gai3 FP;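 active = inhibition score at or above a set limit, where the score is 100 minus the three-replicate mean percent of control signal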
* marks the source's active call; other numbers are inactive results; / = no result.

1) O=C(CCN1C(=O)/C(=C/c2ccc3c(c2)OCO3)SC1=S)Nc1nc2ccccc2s1
2) CCOC(=O)C1=C(C)N=c2s/c(=C/c3ccc(OC(C)=O)cc3)c(=O)n2C1c1ccc(OC)c(OC)c1 (centres undefined)
3) CCOC(=O)c1c(NC(=O)NCc2cccn2Cc2ccccc2)sc2c1CCCC2
4) CCOC(=O)/C(C#N)=C\c1cc2ccc(OC)cc2[nH]c1=O
5) COc1cccc(C(=O)NCCc2cc3ccc(OC)cc3[nH]c2=O)c1
6) COc1cccc(CNC(=O)C2CCCN(c3nnc(-n4c(C)ccc4C)s3)C2)c1 (centres undefined)
7) COc1cccc(CNC(=O)C2CCCN2c2nnc(N3CCCCC3=O)s2)c1 (centres undefined)
8) Cc1cccc(N2C(=O)N(Cc3cc(=O)n4ccccc4n3)c3ccccc3S2(=O)=O)c1
9) CCc1ccccc1N1C(=O)N(Cc2cc(=O)n3ccccc3n2)c2ccccc2S1(=O)=O
10) CC(=O)Nc1ccc(OCC(O)CN2C(C)CCCC2C)cc1 (centres undefined)
assay / compound | 1 | 2 | 3 | 4 | 5 | 6 | 7 | 8 | 9 | 10
HCMV NEC inh | -20 | -19 | -27 | -59 | -19 | -7 | -12 | / | / | -2
GIV Gai3 FP | 72* | 97 | 103 | 56* | 107 | 105 | 87 | 102 | 87 | /
GIV Gai FP conf | 88 | / | / | 82 | / | / | 79 | / | 82 | /
GIV-Gai AS conf | 35546 | / | / | 26623 | / | / | 26734 | / | 31171 | /

11) N#CC(C(=O)NCCc1ccccc1)c1nc2ccccc2nc1N1CCOCC1 (centres undefined)
12) N#CC(C(=O)NCc1ccccc1)c1nc2ccccc2nc1N1CCCC1 (centres undefined)
13) Cc1ccccc1CSc1ccc(-n2nc3c(c2C)CCC3)nn1
14) COc1ccccc1C(C1C(=O)N(c2ccccc2)N=C1C)C1C(=O)N(c2ccccc2)N=C1C (centres undefined)
15) COc1ccc(C(C2C(=O)N(c3ccccc3)N=C2C)C2C(=O)N(c3ccccc3)N=C2C)cc1OC (centres undefined)
16) Cc1ccc(S(=O)(=O)Nc2ccc(O)c(Sc3ncn[nH]3)c2)cc1
17) CC(C)c1ccc(S(=O)(=O)/N=C2/C=C(Sc3ncn[nH]3)C(=O)c3ccccc32)cc1
18) Cc1ccc(Nc2nc(Nc3ccc(C)cc3)nc(Sc3ncn[nH]3)n2)cc1
19) Cc1ccc(S(=O)(=O)/N=C2\C=C(Sc3ncn[nH]3)C(=O)c3ccccc32)cc1
20) Cc1ccc(S(=O)(=O)/N=C2/C=C(Sc3ncn[nH]3)C(=O)c3ccccc32)cc1
assay / compound | 11 | 12 | 13 | 14 | 15 | 16 | 17 | 18 | 19 | 20
HCMV NEC inh | -10 | -17 | / | / | / | -27 | / | -19 | 45 | 32
GIV Gai3 FP | 86 | / | 99 | 114 | 77* | 100 | 13* | / | 83* | 5.9*
GIV Gai FP conf | 76 | / | / | / | 62 | / | 26* | / | 54* | 16*
GIV-Gai AS conf | 31052 | / | / | / | 15958* | / | 3681* | / | 4566* | 6564*

21) O=C1C(Sc2ccccc2)=C/C(=N/S(=O)(=O)c2cccs2)c2ccccc21
22) COc1ccc(/C=C/C(=O)N2c3ccccc3COC2c2ccccc2)cc1 (centres undefined)
23) C=CCCN(C(C)C)S(=O)(=O)c1ccc(C)cc1
24) Cc1ccc(NC(=O)c2nc(S(C)(=O)=O)ncc2N(Cc2ccco2)Cc2ccccc2F)c(C)c1
25) O=C(NCCCN1CCOCC1)c1cc2n(n1)CCCN(Cc1cccc(F)c1)C2=O
26) C#CCNC(=O)Nc1ccccc1OC
27) [N-]=[N+]=c1c(=O)ccc2c(=O)c3ccccc3c(=O)c1=2
28) CC(NC(=O)CSc1nnnn1C)c1ccccc1 (centres undefined)
29) Cn1nnnc1SCC(=O)NC1Cc2ccccc2C1
30) CCc1cccc(C)c1Nc1c(-c2cccc(O)c2)nc2sccn12
assay / compound | 21 | 22 | 23 | 24 | 25 | 26 | 27 | 28 | 29 | 30
HCMV NEC inh | / | / | 0 | -1 | -23 | 35 | -128 | -3 | -12 | 10
GIV Gai3 FP | 95 | 101 | 95 | 92 | 98 | / | 63* | / | 87 | 109
GIV Gai FP conf | / | / | / | / | / | / | 44* | / | 69 | /
GIV-Gai AS conf | / | / | / | / | / | / | 2044* | / | 47713 | /

31) Cc1c(C(=O)NC(C)C)oc2c1-c1[nH]ncc1CC2
32) Cc1cccc(NC(=O)c2oc3c(c2C)-c2[nH]ncc2CC3)c1C
33) CCOC(=O)c1cnc2c(-c3ccccc3)c(C(F)(F)F)nn2c1C
34) CC(COc1ccc2c(c1)OCO2)NC(=O)c1cn(-c2ccc(F)cc2)nn1 (centres undefined)
35) Cc1c(Nc2nc3nonc3nc2Nc2ccc(F)cc2)c(=O)n(-c2ccccc2)n1C
36) Cc1c(Nc2nc3nonc3nc2Nc2ccccc2F)c(=O)n(-c2ccccc2)n1C
37) CC(C)CCNC(=O)C1CCC(=O)N1CCc1ccccc1 (centres undefined)
38) Cn1nc(C(=O)Nc2ccc(F)cc2)c2c1-c1ccccc1S(=O)(=O)C2
39) COC(=O)c1ccc(NC(=O)c2nn(C)c3c2CS(=O)(=O)c2ccccc2-3)cc1
40) CN1CCN(NC(=O)Cc2ccccc2Cl)CC1
assay / compound | 31 | 32 | 33 | 34 | 35 | 36 | 37 | 38 | 39 | 40
HCMV NEC inh | 70* | -7 | -12 | -25 | / | -7 | / | 0 | -16 | -2
GIV Gai3 FP | 69* | 103 | 103 | 102 | 106 | 126 | 103 | 104 | 86 | 106
GIV Gai FP conf | 51* | / | / | / | / | 68 | / | / | 83 | /
GIV-Gai AS conf | 26222* | / | / | / | / | 44712 | / | / | 37898 | /

41) O=C(Cc1ccccc1Cl)NC1(O)C(=O)c2ccccc2C1=O
42) COc1ccc(N(/N=C2\Sc3ccccc3C2=O)C(C)=O)cc1
43) CC(=O)O/N=C1\Sc2ccccc2C1=O
44) COc1ccc(OC)c(-c2noc(N3CCN(c4cccc(C(F)(F)F)c4)CC3)n2)c1
45) O=C(O)CCSC1CC(=O)N(c2ccc(F)cc2)C1=O (centres undefined)
46) COc1ccc(/C=C2\C=C(c3ccccc3)N(c3ccc(Br)cc3C)C2=O)cc1
47) COc1ccc(/C=C2\C=C(c3ccccc3)N(c3ccc(Br)cc3C)C2=O)cc1Br
48) Cc1ccc2nc(N3CCN(c4cccc(Cl)c4)CC3)c(-n3nc(C)cc3C)nc2c1
49) COc1ccc(CCN=Cc2c(C)[nH]n(-c3ccc([N+](=O)[O-])cc3)c2=O)cc1OC
50) CC(C)Nc1ccc(-c2nc(-c3ccco3)no2)cc1[N+](=O)[O-]
assay / compound | 41 | 42 | 43 | 44 | 45 | 46 | 47 | 48 | 49 | 50
HCMV NEC inh | 31 | -3 | 19 | / | / | / | / | 2 | / | -4
GIV Gai3 FP | 70* | 110 | 68* | 103 | 96 | 34* | 110 | 109 | 102 | 90
GIV Gai FP conf | 59 | / | 66 | / | / | 65 | / | / | / | 81
GIV-Gai AS conf | 49874 | / | 29965* | / | / | 40529 | / | / | / | 30875

Of the compounds above, these have a furan ring, fused or not.
24) Cc1ccc(NC(=O)c2nc(S(C)(=O)=O)ncc2N(Cc2ccco2)Cc2ccccc2F)c(C)c1
31) Cc1c(C(=O)NC(C)C)oc2c1-c1[nH]ncc1CC2
32) Cc1cccc(NC(=O)c2oc3c(c2C)-c2[nH]ncc2CC3)c1C
50) CC(C)Nc1ccc(-c2nc(-c3ccco3)no2)cc1[N+](=O)[O-]
assay / compound | 24 | 31 | 32 | 50
HCMV NEC inh | -1 | 70* | -7 | -4
GIV Gai3 FP | 92 | 69* | 103 | 90
GIV Gai FP conf | / | 51* | / | 81
GIV-Gai AS conf | / | 26222* | / | 30875

Next part:
51) CCCNc1ccc(-c2nc(-c3ccco3)no2)cc1[N+](=O)[O-]
52) CCCCN(C)S(=O)(=O)c1ccc2c(c1)CC(C)N2C(C)=O (centres undefined)
53) CN(CCCC(=O)O)S(=O)(=O)c1ccc2c(c1)Cc1cc(S(=O)(=O)N(C)CCCC(=O)O)ccc1-2
54) Oc1sc(-c2ccccc2)cc1C=Nc1ccccc1
55) Oc1ccccc1C=Nc1cccc(N=Cc2ccccc2O)c1
56) Cc1ccc(S(=O)(=O)c2nc(S(=O)(=O)c3ccc(C)cc3)c(NCc3ccco3)s2)cc1
57) S=C1NCc2ccsc2S1
58) COc1ccc(-c2cc(=Nc3ccc(C)cc3C)c3cc(O)ccc3o2)cc1
59) COc1ccc(-c2c/c(=N\O)c3cc(F)ccc3o2)cc1
60) COc1ccc(/C=C2\C=C(c3ccccc3)N(c3ccc(C)cc3C)C2=O)cc1Br
61) CCOC(=O)c1ccc(Nc2nc3ccccc3n3c(C)nnc23)cc1
assay / compound | 51 | 52 | 53 | 54 | 55 | 56 | 57 | 58 | 59 | 60 | 61
HCMV NEC inh | -12 | -17 | / | / | / | / | -242 | / | -20 | / | -18
GIV Gai3 FP | 96 | 100 | 83* | 84* | 100 | 103 | 49* | 75* | / | 128 | 103
GIV Gai FP conf | / | / | 50* | 74 | / | / | 51* | 64 | / | / | /
GIV-Gai AS conf | / | / | 26370* | 45653 | / | / | 31760* | 35576 | / | / | /

High-throughput results as filed in PubChem BioAssay.
